Assays:
γ-H2AX in HepG2 cells = conditions: human, 24 h
Experimental: Human hepatoblastoma cells (HepG2) were cultivated in DMEM medium under standard conditions (37°C in a 5% CO2 atmosphere). The culturing medium was added with 10% FBS, 100 U/mL penicillin and 100 μg/mL streptomycin.
In accordance to our previous study, cells were exposed to the chemotherapeutic agent by adding a proper volume of chemotherapeutic agent stock solution to the fresh medium without serum. Controls were treated with DMSO (0.1%) in medium. Independent biological experiments with three technical replicates were conducted.
The cells were then treated with different chemotherapy agents in serum-free medium. For a dose-effect relationship experiment, cells were exposed to each agent at either of three concentrations with a 10-fold increase for 24 h. For the time-effect relationship experiment of nine tested chemotherapy agents, cells were exposed to selected chemotherapy agents at 0.5, 1, 2, 4, 8, 12, and 24 h, with the concentration of 100 μM. Independent biological experiments with three technical replicates were performed.
The quantification of γ-H2AX was carried out according to the previous report ([Qu et al., 2021]). […] After nuclear isolation, histone extraction, trypsin digestion in the solution, and desalting, the peptide sample from the carboxy terminus of H2AX was analyzed. […]

[1] = combination of in vitro mouse lymphoma, chromosomal aberration, and micronucleus tests; cited from earlier work

maximum γ-H2AX value within the selected concentration range (γ-H2AX in HepG2 cells): 17.5
SMILES: CCc1c2c(nc3ccc(OC(=O)N4CCC(N5CCCCC5)CC4)cc13)-c1cc3c(c(=O)n1C2)COC(=O)[C@]3(O)CC [Irinotecan]
In vitro assays (genotoxicity) [1]: +

From paper PMC11219945, “Assessing genotoxic effects of chemotherapy agents by a robust in vitro assay based on mass spectrometric quantification of γ-H2AX in HepG2 cells” (Frontiers in Pharmacology, 2024)
